Laboratory results: PMC4168798 (ACS Chemical Biology, 2014)

What was measured:
Assay in all cases: fluorescence polarisation
[1] = molecular target: T1, Bcl-w (c-myc-tagged, without the C-terminal trans-membrane region) (human)
T1 chain: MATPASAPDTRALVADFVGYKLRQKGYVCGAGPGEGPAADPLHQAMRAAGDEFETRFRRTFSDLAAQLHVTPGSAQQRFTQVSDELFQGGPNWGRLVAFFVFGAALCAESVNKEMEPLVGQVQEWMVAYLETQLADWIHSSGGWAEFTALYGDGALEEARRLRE

[2] = molecular target: Mcl-1 (c-myc-tagged, without the N-terminal domain and the C-terminal trans-membrane region) (human)
[3] = molecular target: T2, Bfl-1 (c-myc-tagged, without the C-terminal trans-membrane region) (human)
T2 sequence (Q16548 whole entry, looked up): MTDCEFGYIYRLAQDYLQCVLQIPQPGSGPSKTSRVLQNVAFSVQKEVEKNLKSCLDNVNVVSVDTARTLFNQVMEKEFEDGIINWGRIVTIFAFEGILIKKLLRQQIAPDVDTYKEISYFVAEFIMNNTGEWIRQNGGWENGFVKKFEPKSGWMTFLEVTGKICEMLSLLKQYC

[4] = molecular target: Bcl-xL (c-myc-tagged, without the C-terminal trans-membrane region) (human)
[5] = molecular target: Bcl-2 (c-myc-tagged, without the C-terminal trans-membrane region) (human)

RPEIWLTQSLQRLGDEINAYYAR (designed binder, N-terminal 5/6-fluorescein amidite; C-terminal amidation) [MS2, N-terminal fluorescein]
Kd [1]: 250 nM | Kd [2]: 1.5 nM | Kd [3]: 3100 nM | Kd [4]: 1400 nM | Kd [5]: 6200 nM

RPEIWMTQGLRRLGDEINAYYAR (designed binder, N-terminal 5/6-fluorescein amidite; C-terminal amidation) [MS1, N-terminal fluorescein]
Kd [1]: 1300 nM | Kd [4]: 1600 nM
